Source: PubChem BioAssay (NCATS)
Only a part is listed here, and it is no random draw. Results filed as inconclusive are left out. For some of these results: Potency and affinity values are given separately. The source made the active and inactive calls. Unless noted, calls follow the shape of the dose curve; as a rule, active = well fitted curve in the direction sought with a large enough effect; inconclusive = small, poorly fitted or top-dose-only effect, or another doubt; inactive = no such curve, though single readings can be large; an effect the other way counts as inactive or inconclusive.

By UniProt entry, the sequences of proteins in these tests, tags left out. Where a name states a change or a piece, a line headed by the entry shows the natural chain unless it says otherwise.
UniProt Q96QE3: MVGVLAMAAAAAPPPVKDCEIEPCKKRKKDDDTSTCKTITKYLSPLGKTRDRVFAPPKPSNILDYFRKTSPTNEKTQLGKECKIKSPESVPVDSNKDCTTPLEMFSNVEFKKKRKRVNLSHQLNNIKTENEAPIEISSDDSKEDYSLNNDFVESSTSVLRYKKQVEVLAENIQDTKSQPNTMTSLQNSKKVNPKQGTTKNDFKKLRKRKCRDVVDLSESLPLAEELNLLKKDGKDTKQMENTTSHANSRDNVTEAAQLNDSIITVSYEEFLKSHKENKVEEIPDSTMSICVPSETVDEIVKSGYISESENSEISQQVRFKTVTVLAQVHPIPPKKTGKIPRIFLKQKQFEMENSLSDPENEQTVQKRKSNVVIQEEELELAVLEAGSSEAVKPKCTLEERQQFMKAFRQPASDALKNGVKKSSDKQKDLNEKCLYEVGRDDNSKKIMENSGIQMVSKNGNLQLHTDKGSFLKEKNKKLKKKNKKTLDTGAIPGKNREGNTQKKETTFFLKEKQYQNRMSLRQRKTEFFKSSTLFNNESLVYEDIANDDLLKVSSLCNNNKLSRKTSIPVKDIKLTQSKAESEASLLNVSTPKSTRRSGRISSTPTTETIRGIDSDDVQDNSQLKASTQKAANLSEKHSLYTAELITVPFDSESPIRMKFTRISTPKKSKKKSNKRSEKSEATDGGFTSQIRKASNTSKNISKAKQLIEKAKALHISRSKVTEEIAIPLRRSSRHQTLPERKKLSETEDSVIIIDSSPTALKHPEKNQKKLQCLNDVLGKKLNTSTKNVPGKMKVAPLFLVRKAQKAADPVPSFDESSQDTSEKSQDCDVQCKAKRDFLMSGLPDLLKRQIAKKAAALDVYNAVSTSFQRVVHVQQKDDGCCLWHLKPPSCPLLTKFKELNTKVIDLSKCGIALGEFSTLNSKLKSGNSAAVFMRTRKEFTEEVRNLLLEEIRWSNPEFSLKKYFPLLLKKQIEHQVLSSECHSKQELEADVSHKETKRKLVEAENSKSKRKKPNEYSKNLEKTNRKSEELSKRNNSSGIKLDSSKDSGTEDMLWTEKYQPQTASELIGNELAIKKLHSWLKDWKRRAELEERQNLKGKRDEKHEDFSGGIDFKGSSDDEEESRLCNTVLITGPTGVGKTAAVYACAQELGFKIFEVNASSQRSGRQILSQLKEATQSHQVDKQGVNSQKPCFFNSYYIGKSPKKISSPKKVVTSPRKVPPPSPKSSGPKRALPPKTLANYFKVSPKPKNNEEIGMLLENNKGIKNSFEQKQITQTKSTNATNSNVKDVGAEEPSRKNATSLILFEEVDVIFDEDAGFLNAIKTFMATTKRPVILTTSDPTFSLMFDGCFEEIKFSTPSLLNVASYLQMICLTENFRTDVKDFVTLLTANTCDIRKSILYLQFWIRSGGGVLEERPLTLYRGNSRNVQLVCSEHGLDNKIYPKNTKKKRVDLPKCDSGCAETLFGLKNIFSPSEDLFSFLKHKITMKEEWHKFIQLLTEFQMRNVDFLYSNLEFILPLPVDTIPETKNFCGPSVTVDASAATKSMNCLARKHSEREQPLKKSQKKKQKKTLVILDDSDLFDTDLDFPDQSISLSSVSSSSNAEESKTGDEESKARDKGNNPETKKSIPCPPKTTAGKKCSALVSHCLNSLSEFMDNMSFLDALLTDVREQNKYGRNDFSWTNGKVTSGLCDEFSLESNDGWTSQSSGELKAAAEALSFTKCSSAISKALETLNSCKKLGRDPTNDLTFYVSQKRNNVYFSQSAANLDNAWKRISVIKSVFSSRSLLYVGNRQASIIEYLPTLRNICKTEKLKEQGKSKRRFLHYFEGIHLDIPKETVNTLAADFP
UniProt P34981: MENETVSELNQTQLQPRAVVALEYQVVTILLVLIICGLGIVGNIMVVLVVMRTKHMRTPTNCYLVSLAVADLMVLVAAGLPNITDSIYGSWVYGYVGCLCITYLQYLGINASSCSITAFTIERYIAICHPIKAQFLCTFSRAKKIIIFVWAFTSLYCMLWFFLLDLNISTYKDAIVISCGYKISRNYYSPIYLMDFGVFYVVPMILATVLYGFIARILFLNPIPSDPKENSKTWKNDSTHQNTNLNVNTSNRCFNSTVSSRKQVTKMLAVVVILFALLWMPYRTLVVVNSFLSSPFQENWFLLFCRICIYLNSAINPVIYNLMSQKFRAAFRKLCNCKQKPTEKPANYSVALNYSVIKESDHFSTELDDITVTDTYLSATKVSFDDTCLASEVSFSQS
UniProt P51570: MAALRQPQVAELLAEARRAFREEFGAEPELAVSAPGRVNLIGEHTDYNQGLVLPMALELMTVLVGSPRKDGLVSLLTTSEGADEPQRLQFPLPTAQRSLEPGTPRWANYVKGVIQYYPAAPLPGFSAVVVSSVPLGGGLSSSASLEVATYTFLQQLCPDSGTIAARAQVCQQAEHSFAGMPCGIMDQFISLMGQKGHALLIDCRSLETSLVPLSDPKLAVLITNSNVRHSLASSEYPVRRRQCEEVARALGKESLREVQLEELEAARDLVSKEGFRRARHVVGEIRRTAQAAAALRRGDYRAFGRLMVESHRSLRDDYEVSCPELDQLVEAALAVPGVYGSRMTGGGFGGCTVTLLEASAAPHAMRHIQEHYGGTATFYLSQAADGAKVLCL
UniProt Q13526, whole entry, looked up: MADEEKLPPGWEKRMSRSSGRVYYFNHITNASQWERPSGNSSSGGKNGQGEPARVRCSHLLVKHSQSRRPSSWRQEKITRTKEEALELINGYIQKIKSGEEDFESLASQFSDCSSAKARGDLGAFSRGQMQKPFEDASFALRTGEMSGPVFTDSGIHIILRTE
UniProt O94782: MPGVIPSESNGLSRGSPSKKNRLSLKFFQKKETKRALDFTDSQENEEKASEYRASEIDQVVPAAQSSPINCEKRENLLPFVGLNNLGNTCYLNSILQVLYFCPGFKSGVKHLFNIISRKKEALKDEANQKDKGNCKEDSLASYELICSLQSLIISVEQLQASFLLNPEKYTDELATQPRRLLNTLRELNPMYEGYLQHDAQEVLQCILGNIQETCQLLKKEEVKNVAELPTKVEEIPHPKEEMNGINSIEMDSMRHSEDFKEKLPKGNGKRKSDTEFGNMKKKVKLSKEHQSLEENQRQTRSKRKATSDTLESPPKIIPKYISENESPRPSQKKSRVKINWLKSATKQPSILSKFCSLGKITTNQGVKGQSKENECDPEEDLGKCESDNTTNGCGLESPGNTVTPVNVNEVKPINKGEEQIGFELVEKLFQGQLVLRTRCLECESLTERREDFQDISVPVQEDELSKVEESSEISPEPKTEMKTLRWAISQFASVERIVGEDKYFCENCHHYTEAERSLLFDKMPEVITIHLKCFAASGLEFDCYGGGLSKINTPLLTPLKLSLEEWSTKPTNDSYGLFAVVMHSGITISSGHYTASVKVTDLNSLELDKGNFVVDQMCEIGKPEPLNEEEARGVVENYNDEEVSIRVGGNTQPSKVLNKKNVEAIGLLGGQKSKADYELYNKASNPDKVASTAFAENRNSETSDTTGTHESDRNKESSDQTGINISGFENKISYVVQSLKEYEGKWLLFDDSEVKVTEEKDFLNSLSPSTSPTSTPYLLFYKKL
UniProt Q12809: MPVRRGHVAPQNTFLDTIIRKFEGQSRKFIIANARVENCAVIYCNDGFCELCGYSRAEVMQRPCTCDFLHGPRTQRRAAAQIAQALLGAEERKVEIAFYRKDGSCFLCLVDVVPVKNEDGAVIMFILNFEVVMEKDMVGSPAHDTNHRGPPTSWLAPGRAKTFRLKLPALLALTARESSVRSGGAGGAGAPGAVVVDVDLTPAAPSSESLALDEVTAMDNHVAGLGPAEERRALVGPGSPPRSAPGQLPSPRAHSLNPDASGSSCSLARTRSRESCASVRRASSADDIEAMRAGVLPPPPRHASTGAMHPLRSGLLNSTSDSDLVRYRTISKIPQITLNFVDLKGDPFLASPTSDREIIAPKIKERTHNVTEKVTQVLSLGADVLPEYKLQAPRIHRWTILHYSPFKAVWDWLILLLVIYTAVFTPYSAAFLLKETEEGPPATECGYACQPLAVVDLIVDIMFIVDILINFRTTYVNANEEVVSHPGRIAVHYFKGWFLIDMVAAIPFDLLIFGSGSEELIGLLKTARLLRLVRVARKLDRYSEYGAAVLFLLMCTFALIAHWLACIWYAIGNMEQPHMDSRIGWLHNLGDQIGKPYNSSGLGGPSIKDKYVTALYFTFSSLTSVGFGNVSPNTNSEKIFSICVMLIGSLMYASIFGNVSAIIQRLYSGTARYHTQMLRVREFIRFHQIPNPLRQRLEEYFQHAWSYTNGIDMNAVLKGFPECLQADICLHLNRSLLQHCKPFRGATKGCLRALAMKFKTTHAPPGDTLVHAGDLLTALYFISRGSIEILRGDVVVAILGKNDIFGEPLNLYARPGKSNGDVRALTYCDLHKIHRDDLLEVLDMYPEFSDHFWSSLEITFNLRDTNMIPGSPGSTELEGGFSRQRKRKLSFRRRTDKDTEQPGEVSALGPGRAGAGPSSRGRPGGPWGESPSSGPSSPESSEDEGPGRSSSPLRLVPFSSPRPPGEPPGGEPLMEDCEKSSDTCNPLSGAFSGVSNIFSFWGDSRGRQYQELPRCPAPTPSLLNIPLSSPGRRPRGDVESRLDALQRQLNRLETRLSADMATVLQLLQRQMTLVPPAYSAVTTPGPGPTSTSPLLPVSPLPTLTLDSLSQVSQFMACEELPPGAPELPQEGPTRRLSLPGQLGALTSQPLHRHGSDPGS
UniProt O94925: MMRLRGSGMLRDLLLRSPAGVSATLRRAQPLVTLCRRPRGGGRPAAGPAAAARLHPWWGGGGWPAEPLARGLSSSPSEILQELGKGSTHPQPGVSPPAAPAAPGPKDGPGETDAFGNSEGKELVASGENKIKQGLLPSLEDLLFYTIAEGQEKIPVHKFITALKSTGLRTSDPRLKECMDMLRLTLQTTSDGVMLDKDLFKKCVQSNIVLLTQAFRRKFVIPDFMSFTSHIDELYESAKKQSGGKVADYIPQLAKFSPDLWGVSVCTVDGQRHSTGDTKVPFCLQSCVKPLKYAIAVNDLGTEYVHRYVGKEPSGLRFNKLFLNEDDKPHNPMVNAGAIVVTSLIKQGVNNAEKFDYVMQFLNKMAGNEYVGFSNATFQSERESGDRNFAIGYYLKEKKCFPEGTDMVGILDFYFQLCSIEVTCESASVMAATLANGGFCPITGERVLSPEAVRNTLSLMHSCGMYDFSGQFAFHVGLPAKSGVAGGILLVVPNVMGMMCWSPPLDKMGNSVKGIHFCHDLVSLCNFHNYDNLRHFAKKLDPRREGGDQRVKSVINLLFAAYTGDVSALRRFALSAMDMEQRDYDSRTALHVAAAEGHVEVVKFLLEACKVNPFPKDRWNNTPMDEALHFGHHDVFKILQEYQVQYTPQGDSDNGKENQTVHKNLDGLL
UniProt P43220, whole entry, looked up: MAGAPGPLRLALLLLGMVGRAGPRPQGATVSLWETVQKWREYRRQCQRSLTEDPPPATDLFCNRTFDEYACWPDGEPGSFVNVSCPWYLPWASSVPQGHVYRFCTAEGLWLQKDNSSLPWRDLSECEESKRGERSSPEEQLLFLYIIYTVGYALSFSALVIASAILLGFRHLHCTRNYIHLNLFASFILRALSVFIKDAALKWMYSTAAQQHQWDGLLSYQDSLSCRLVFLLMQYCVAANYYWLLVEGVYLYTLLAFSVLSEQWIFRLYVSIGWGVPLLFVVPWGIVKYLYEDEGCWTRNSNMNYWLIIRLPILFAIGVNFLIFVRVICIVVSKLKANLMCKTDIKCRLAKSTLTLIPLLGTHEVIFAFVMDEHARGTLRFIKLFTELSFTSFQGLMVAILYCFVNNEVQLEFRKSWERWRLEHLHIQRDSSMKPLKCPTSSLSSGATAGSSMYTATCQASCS

Columns and labels:
[1] = Validation screen for small molecules that induce genotoxicity in human embryonic kidney (HEK293T) cells expressing luciferase-tagged ELG1 (AID 493106); details: luminescence; at 46.1 µM (top of the series); also: 0% is about no effect
How it was run: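 In this validation screen, increased ELG1-luciferase signal flags compounds causing genetic stress. HEK293T reporter cells are treated 16 hr (37 °C, 5% CO2), developed with ONE-Glo for 30 min at room temperature, and imaged on a CCD-based reader.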

[2] = target: ATPase family AAA domain-containing protein 5 (Homo sapiens) (UniProt Q96QE3); experiment: Validation screen for small molecules that inhibit ELG1-dependent DNA repair in human embryonic kidney (HEK293T) cells expressing luciferase-tagged ELG1 (AID 493107); details: HEK293T ELG1-luciferase level, luminescence, 5-fluorouridine co-treatment, 16 h; at 46.1 µM (top of the series);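 also: cells co-treated with the DNA-damaging agent 5-fluorouridine alongside compound; % is scaled to controls: 0 for no effect and ±100 for the full control effect; inhibitors lower the ELG1-luciferase luminescence signal; nearly all actives have a fitted effect of over 70% in size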
How it was run: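 Compounds reducing 5-fluorouridine-driven ELG1-luciferase signal in HEK293T cells were scored; exposure lasted 16 hr at 37 °C with luminescence detected via ONE-Glo.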

[3] = target: Thyrotropin-releasing hormone receptor (Homo sapiens) (UniProt P34981); experiment: qHTS for Small Molecule Agonists and Allosteric Enhancers of Human TRH Receptor: Validation Screen for Agonists (AID 493127;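 active = calcium activation more than 3 SD above the typical response in the agonist read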;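 also: intracellular calcium rise by fluo-8 fluorescence before TRH EC20 addition; 0% is about no effect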); details: TRH receptor agonist cell assay; at 2 µM; hits give high values
How it was run: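 Kinetic fluorescence assay of agonist-induced calcium release: overnight-plated TRHR cells, room-temperature fluo-8 loading, baseline then compound addition with per-second reads.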

[4] = qHTS for Inhibitors of Cell Surface uPA Generation: Validation Assay (AID 493164); details: mouse cells, plasminogen activation; at 38.3 µM (top of the series);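 also: RAW 264.7 macrophage cells exposed to compound for 18 h; 0% is about no effect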
How it was run: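 Compounds are titrated over seven points (2.45 nM–38.3 uM final) onto pre-plated RAW 264.7 cells and incubated for 18 h. Retained intracellular ATP, measured with ATP-Lite, indicates blocked lethal factor entry.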

[5] = target: Galactokinase (Homo sapiens) (UniProt P51570); experiment: qHTS Validation Assay for Inhibitors of Human Galactokinase (GALK) (AID 493189); details: purified human GALK enzyme activity, qHTS 7-point titration; at 57.5 µM (top of the series); also: 0% is about no effect
How it was run: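 Inhibition was measured as remaining ATP, detected by luciferase luminescence after a 1 h room-temperature reaction. Final conditions: 5 nM GALK, 100 uM galactose, 35 uM ATP, pH 8.0 HEPES buffer.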

[6] = Validation screen for small molecules that induce DNA re-replication in SW480 colon adenocarcinoma cells (AID 504364); details: DNA re-replication phenotype (high-content imaging); at 46.1 µM (top of the series); also: 0% is about no effect
How it was run: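 Hoechst-stained SW480 nuclei, imaged at 405 nm excitation after 48 hr compound exposure, were counted for elevated DNA content as the re-replication signal.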

[7] = target: Peptidyl-prolyl cis-trans isomerase NIMA-interacting 1 (Homo sapiens) (UniProt Q13526); experiment: qHTS Validation Assay to Find Inhibitors of Pin1 (AID 504536; active = well fitted inhibition curve with a large enough effect in the polarisation, with a control signal flat, not every such curve was filed as active; the % refers to the polarisation;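 also: 0% = full Pin1 enzyme wells and -100% = no-enzyme wells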); details: Pin1 fluorescence polarization peptide binding assay; at 57.5 µM (top of the series)
How it was run: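 Fluorescence polarization competition: compounds (titration) displace HiFluor-488-labeled Pin1-1b peptide from Pin1 (0.3 uM final) in pH 7.5 HEPES buffer with DTT, 10 min at room temperature; %Activity normalized to no-enzyme wells, curves fitted.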

[8] = Inducers of the Endoplasmic Reticulum Stress Response (ERSR) in human glioma: Validation (AID 504836); details: human glioma cells, ER stress response reporter; at 38.3 µM (top of the series); also: 0% is about no effect
How it was run: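 ERSR induction read as luciferase luminescence (Bright-Glo, 10 min at room temperature) in stably transfected human U87-MG glioma cells exposed to compounds for 16 h, using GRP78 as sensor.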

[9] = target: Ubiquitin carboxyl-terminal hydrolase 1 (Homo sapiens) (UniProt O94782); experiment: Inhibitors of USP1/UAF1: Pilot qHTS (AID 504865); details: purified USP1/UAF1, Ub-rhodamine cleavage fluorescence; at 114 µM (top of the series);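 also: rhodamine fluorescence freed from ubiquitin-rhodamine substrate followed over time; top concentration of the series differs between compounds; % is scaled to controls: 0 for no effect and ±100 for the full control effect; nearly all actives have a fitted effect of over 35% in size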
[10] = qHTS for Inhibitors of ATXN expression: Validation of Cytotoxic Assay (AID 588349); details: cytotoxicity counter-screen for ATXN expression inhibitors, cell viability; at 57.1 µM (top of the series); also: % is scaled to controls: 0 for no effect and ±100 for the full control effect
How it was run: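 Toxicity of test compounds toward HEK293 cells is scored from cellular ATP content measured by CellTiter Glo. Cells receive titrated doses and incubate 72 hr at 37 degrees C beforehand.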

[11] = qHTS for Inhibitors of ATXN expression: Validation (AID 588378); details: cell-based ATXN2 expression reporter assay, luminescence; at 57.1 µM (top of the series); also: % is scaled to controls: 0 for no effect and ±100 for the full control effect; nearly all actives have a fitted effect of over 75% in size
How it was run: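 Luciferase luminescence (Bright-Glo) from an ATXN2-FFLuc HEK293 line after 24 h compound exposure at 37 °C, preceded by a CellTiter-Fluor fluorescence viability read. Serial dilutions of a reference ATXN2 inhibitor and a luciferase inhibitor served as controls.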

[12] = target: Voltage-gated inwardly rectifying potassium channel KCNH2 (Homo sapiens) (UniProt Q12809); experiment: qHTS Assay for Small Molecule Inhibitors of the Human hERG Channel Activity (AID 588834); details: U2OS BacMam hERG, FluxOR thallium flux fluorescence; at 46.1 µM (top of the series) unless noted;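 also: U2OS cells transduced with hERG by BacMam; top concentration of the series differs between compounds; % is scaled to controls: 0 for no effect and ±100 for the full control effect; lower thallium flux fluorescence means stronger hERG block; nearly all actives have a fitted effect of over 50% in size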
[13] = target: Glutaminase kidney isoform, mitochondrial (Homo sapiens) (UniProt O94925); experiment: qHTS for Inhibitors of Glutaminase (GLS): LOPAC Validation (AID 624146);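 also: glutamate product detected by oxidase and peroxidase coupled Amplex red fluorescence gain; % is scaled to controls: 0 for no effect and ±100 for the full control effect; nearly all actives have a fitted effect of over 60% in size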
How it was run: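 Compounds were pin-transferred onto hKGA, after which L-glutamine (1 mM solution) and a detection mix of glutamate oxidase, HRP and Amplex Red were added. Initial and 30 min RT fluorescence reads were collected.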

[14] = target: Glucagon-like peptide 1 receptor (Homo sapiens) (UniProt P43220); experiment: qHTS of GLP-1 Receptor Agonists: LOPAC Validation (AID 624148); details: GLP-1R agonist cell assay; at 46.1 µM (top of the series);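 also: luminescence from a luciferase reporter switched on by cAMP; 0% is about no effect; higher luminescence signal means agonism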
How it was run: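 Agonism scored as increased luciferase luminescence driven by cAMP in HEK293 clones carrying GLP-1R. Cells settled 12 hours, received compound for 4-6 hr at 37 deg C, 5% CO2, and were read after 12 min detection reagent at RT.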

[15] = qHTS of Nrf2 Activators: LOPAC Validation (AID 624149); details: Nrf2/ARE reporter cell assay; at 46.1 µM (top of the series); also: 0% is about no effect
How it was run: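 Following overnight seeding in 5% FBS OPTI-MEM, AREc32_Fluc cells receive compounds for a 24 hr incubation at 37 deg C with 5% CO2. Steady-Glo is added, and after 30 min at RT luminescence is recorded.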

[16] = HTS Assay for Allosteric Antagonists of the Human D2 Dopamine Receptor: Hit Validation in HTRF (AID 624455); details: D2 receptor cells, HTRF cAMP read-out, antagonist mode; at 46.1 µM (top of the series);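 also: stable D1 dopamine receptor cell line scored for blocking the D1 response; % is scaled to controls: 0 for no effect and ±100 for the full control effect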
How it was run: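 Validation of hits used D1 receptor stably expressed in cells with HTRF detection of response inhibition; origin screen measured calcium flux following EC80 dopamine in a force-coupled, inducible Hek293 Trex D2 cell line.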

CN(CCCl)Cc1cc(Cl)c(NC2=NCCN2)c(Cl)c1
inactive: activity change, positive = ELG1 induction [1] -0.542% | activity change, negative = decrease [2] -7.77% | activation [3] 1.56% | activity change [4] 1.06% | activity change, negative = inhibition [5] 4.77% | activity (re-replication induction) [6] 25.3% | activity, negative = inhibition [7] 0.0722% | activation [8] -2.19% | activity change, negative = inhibition [9] -9.54% | activity change, negative = cytotoxicity [10] -18.2% | activity change, negative = inhibition [11] -8.62% | activity change, negative = inhibition [12] -19.8% | Potency [13] | activation [14] -1.67% | activation [15] 1.1% | activity, negative = inhibition [16] 0.436%
